Experimental data as given in patent US12152019B2, “Arylalkyl pyrazole compounds as indoleamine 2,3-dioxygenase inhibitors” (Merck Sharp & Dohme LLC, priority 2018, dated 2024).

By UniProt entry, the sequences of proteins in these tests, tags left out.
UniProt P14902, whole entry: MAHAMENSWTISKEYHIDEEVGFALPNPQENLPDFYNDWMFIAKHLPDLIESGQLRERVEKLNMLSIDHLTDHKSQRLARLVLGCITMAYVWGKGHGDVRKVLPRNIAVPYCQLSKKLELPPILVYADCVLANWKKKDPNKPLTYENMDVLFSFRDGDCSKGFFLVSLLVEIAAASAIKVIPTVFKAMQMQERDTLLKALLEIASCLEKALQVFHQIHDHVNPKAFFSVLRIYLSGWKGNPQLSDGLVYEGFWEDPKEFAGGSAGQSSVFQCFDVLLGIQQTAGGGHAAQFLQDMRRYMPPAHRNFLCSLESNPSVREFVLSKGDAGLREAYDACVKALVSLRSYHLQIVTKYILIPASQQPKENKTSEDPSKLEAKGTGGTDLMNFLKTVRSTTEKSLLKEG

Target: IDO1 (Homo sapiens, UniProt P14902)
Assay: IDO1 Cellular Assay in HeLa Cells Stimulated with IFNγ
Assay type: cell-based
Conditions: HeLa cells stimulated with IFNγ 100 ng/mL, 300 uM L-tryptophan, about 48 hours, fluorescence readout; read-out: HeLa Cell Potency, IC50

Point of comparison: Cc1cccc(N2CCN(CCn3nc(C(=O)N4CCCC4)c4ccccc43)CC2)c1C [Example 75, (1-(2-(4-(2,3-dimethylphenyl)piperazin-1-yl)ethyl)-1H-indazol-3-yl)(pyrrolidin-1-yl)methanone], IC50 203 nM. Against it:
- CC(=O)NC1CCN(C(=O)c2nn(CC[C@H]3CC[C@@H](Oc4ncccc4C)CC3)cc2Br)CC1 [Example 71, N-(1-(4-bromo-1-(2-((1s,4s)-4-((3-methylpyridin-2-yl)oxy)cyclohexyl)ethyl)-1H-pyrazole-3-carbonyl)-piperidin-4-yl)acetamide] — 15-fold lower, 13.3 nM
- Cc1ccc(Cl)c(O[C@H]2CC[C@@H](CCn3nc(C(=O)N4CCN(C(=O)CO)CC4)c4c3CCC4)CC2)c1 [Example 57, 1-(4-(1-(2-((1s,4s)-4-(2-chloro-5-methylphenoxy)cyclohexyl)ethyl)-1,4,5,6-tetrahydrocyclopenta[c]pyrazole-3-carbonyl)piperazin-1-yl)-2-hydroxyethan-1-one] — 78-fold lower, 2.61 nM
- Cc1c(F)ccc(N2CCC(CCn3nc(C(=O)N4CCC(F)(CO)CC4)c4c3CCC4)CC2)c1C [Example 8, (1-(2-(1-(4-fluoro-2,3-dimethylphenyl)piperidin-4-yl)ethyl)-1,4,5,6-tetrahydrocyclopenta[c]pyrazol-3-yl)(4-fluoro-4-(hydroxymethyl)piperidin-1-yl)methanone] — 47-fold lower, 4.35 nM
- Cc1cccc(C2CCC(CCn3nc(C(=O)N4CCC(O)CC4)c4c3CCC4)CC2)c1C (single isomer, unassigned) [Example 96, (1-(2-(4-(2,3-dimethylphenyl)cyclohexyl)ethyl)-1,4,5,6-tetrahydrocyclopenta[c]pyrazol-3-yl)(4-hydroxypiperidin-1-yl)methanone] — 77-fold lower, 2.62 nM
- Cc1cccnc1O[C@H]1CC[C@@H](CCn2nc(C(=O)N3CCC(N)CC3)c3c2CCC(F)(F)C3)CC1 [Example 85, (4-aminopiperidin-1-yl)[5,5-difluoro-1-(2-{cis-4-[(3-methylpyridin-2-yl)oxy]cyclohexyl}ethyl)-4,5,6,7-tetrahydro-1H-indazol-3-yl]methanone] — 7.4-fold lower, 27.3 nM
- CC(=O)NC1CCN(C(=O)c2nn(CCC3CCN(c4ccncc4C)CC3)c3c2CCCC3)CC1 [Example 32, N-[1-[1-[2-[1-(3-methyl-4-pyridyl)-4-piperidyl]ethyl]-4,5,6,7-tetrahydroindazole-3-carbonyl]-4-piperidyl]acetamide] — 4.8-fold lower, 42.4 nM
- O=C(c1nn(CCC2CCN(c3ccnc4ccc(F)cc34)CC2)c2c1CCC2)N1CCC(O)CC1 [Example 6, [1-[2-[1-(6-fluoroquinolin-1-ium-4-yl)-4-piperidyl]ethyl]-5,6-dihydro-4H-cyclopenta[c]pyrazol-3-yl]-(4-hydroxy-1-piperidyl)methanone] — 1.8-fold lower, 111 nM
- Cc1c(Cl)cccc1OC1CCC(Cn2nc(C(=O)N3C[C@@H](C)O[C@@H](C)C3)c3c2CCC3)CC1 (single isomer, unassigned) [Example 55] — 3-fold lower, 68.3 nM
- Cc1c(Cl)cccc1N1CCC(O)(CCn2nc(C(=O)N3CC[C@@H](O)[C@@H](F)C3)c3c2C[C@H]2C[C@@H]32)CC1 [Example 98, ((3bR,4aR)-1-(2-(1-(3-chloro-2-methylphenyl)-4-hydroxypiperidin-4-yl)ethyl)-3b,4,4a,5-tetrahydro-1H-cyclopropa[3,4]cyclopenta[1,2-c]pyrazol-3-yl)((3 S,4R)-3-fluoro-4-hydroxypiperidin-1-yl)methanone] — 26-fold lower, 7.89 nM
- CC(=O)NC1CCN(C(=O)c2ccn(CC[C@H]3CC[C@@H](Oc4ncccc4C)CC3)n2)CC1 [Example 72, N-(1-(1-(2-((1s,4s)-4-((3-methylpyridin-2-yl)oxy)cyclohexyl)ethyl)-1H-pyrazole-3-carbonyl)piperidin-4-yl)acetamide] — 13-fold lower, 15.5 nM
- Cc1cccc(N2CCC(C(F)Cn3nc(C(=O)N4C[C@@H](C)O[C@@H](C)C4)c4c3CCC4)CC2)c1C (single isomer, unassigned) [Example 47] — 2.8-fold lower, 73.6 nM
- CC(=O)NC1CCN(C(=O)c2nn(CC[C@H]3CC[C@@H](Oc4ccccc4C)CC3)c3c2CCC3)CC1 [Example 61, N-(1-(1-(2-((1s,4s)-4-(2-methylphenoxy)cyclohexyl)ethyl)-1,4,5,6-tetrahydrocyclopenta[c]pyrazole-3-carbonyl)piperidin-4-yl)acetamide] — 350-fold lower, 0.577 nM
- CC(=O)NC1CCN(C(=O)c2nn(CCC3CCN(c4ncccc4C#N)CC3)c3c2CCCC3)CC1 [Example 39, N-[1-[1-[2-[1-(3-cyano-2-pyridyl)-4-piperidyl]ethyl]-4,5,6,7-tetrahydroindazole-3-carbonyl]-4-piperidyl]acetamide] — 9.3-fold lower, 21.9 nM
- CC(=O)NC1CCN(C(=O)c2nn(CC[C@H]3CC[C@@H](Oc4cnccc4C)CC3)c3c2CCC3)CC1 [Example 64, N-(1-(1-(2-((1s,4s)-4-((4-methylpyridin-3-yl)oxy)cyclohexyl)ethyl)-1,4,5,6-tetrahydrocyclopenta[c]pyrazole-3-carbonyl)piperidin-4-yl)acetamide] — 330-fold lower, 0.619 nM
- Cc1cccnc1O[C@H]1CC[C@@H](CCn2nc(C(=O)N3CCC(OCCO)CC3)c3c2C[C@H]2C[C@@H]32)CC1 [Example 91, [4-(2-hydroxyethoxy)piperidin-1-yl][(3bR,4aR)-1-(2-{cis-4-[(3-methylpyridin-2-yl)oxy]cyclohexyl}ethyl)-3b,4,4a,5-tetrahydro-1H-cyclopropa[3,4]cyclopenta[1,2-c]pyrazol-3-yl]methanone] — 100-fold lower, 1.97 nM
- Cc1c(Cl)cccc1N1CCC(CCn2nc(C(=O)N3CCC(O)CC3)c3c2CCC3)CC1 [Example 3, [1-[2-[1-(3-chloro-2-methyl-phenyl)piperidin-1-ium-4-yl]ethyl]-5,6-dihydro-4H-cyclopenta[c]pyrazol-3-yl]-(4-hydroxy-1-piperidyl)methanone] — 5.4-fold lower, 37.7 nM
- Cc1c(Cl)cccc1N1CCC(CCn2nc(C(=O)N3CCC(F)(CO)CC3)c3c2CCC3)CC1 [Example 10, [1-[2-[1-(3-chloro-2-methyl-phenyl)piperidin-1-ium-4-yl]ethyl]-5,6-dihydro-4H-cyclopenta[c]pyrazol-3-yl]-[4-fluoro-4-(hydroxymethyl)-1-piperidyl]methanone] — 23-fold lower, 8.65 nM
- Cc1ccc(Cl)c(O[C@H]2CC[C@@H](CCn3nc(C(=O)N4CCC(F)(CO)CC4)c4c3CCC4)CC2)c1 [Example 58, (1-(2-((1s,4s)-4-(2-chloro-5-methylphenoxy)cyclohexyl)ethyl)-1,4,5,6-tetrahydrocyclopenta[c]pyrazol-3-yl)(4-fluoro-4-(hydroxymethyl)piperidin-1-yl)methanone] — 130-fold lower, 1.6 nM
- Cc1cccc(N2CCC(CCn3nc(C(=O)N4CCC(O)CC4)c4c3CCC4)CC2)c1C [Example 1, (1-(2-(1-(2,3-dimethylphenyl)piperidin-4-yl)ethyl)-1,4,5,6-tetrahydrocyclopenta[c]pyrazol-3-yl)(4-hydroxypiperidin-1-yl)methanone] — 17-fold lower, 12.2 nM
- CC(=O)NC1CCN(C(=O)c2nn(CC[C@H]3CC[C@@H](Oc4cnc(C)nc4C)CC3)c3c2CCC3)CC1 [Example 68, N-(1-(1-(2-((1s,4s)-4-((2,4-dimethylpyrimidin-5-yl)oxy)cyclohexyl)ethyl)-1,4,5,6-tetrahydrocyclopenta[c]pyrazole-3-carbonyl)piperidin-4-yl)acetamide] — 130-fold lower, 1.52 nM
